These are literature values, as cited in US20030022909A1, “Use of methylnaltrexone to treat immune suppression” (University of Chicago, priority 2001, published 2003).

This is a selection: effects in other tests are not listed, and their absence says nothing.

For this data set the following is noted: in vivo; cited from earlier work.

`CCC(=O)N(c1ccccc1)C1(C(=O)OC)CCN(CCC(=O)OC)CC1`: the half-life result is listed as “only several minutes”.
